Experimental data from patent US8097722B2 (priority 2008, dated 2012).

What was measured:
liver PMPMEase = experiment: Inhibition of liver PMPMEase by OPs (liver 40,000xg supernatant); assay type: biochemical, porcine; conditions: 1 mM OP, 1 h, 37° C., liver 40,000×g supernatant (19 μg protein), N=3
brain PMPMEase = experiment: Inhibition of brain PMPMEase by OPs (brain membrane Triton X-100 extract); assay type: biochemical, porcine; conditions: 1 mM OP, 3 h, 37° C., brain membrane Triton X-100 extract (47 μg protein), N=3

CC(C)OP(=S)(OC(C)C)SCCNS(=O)(=O)c1ccccc1
Liver Mean (mean percent inhibition relative to the controls) (liver PMPMEase): 76%
Brain Mean (mean percent inhibition relative to the controls) (brain PMPMEase): 82%

Fonofos
Liver Mean (mean percent inhibition relative to the controls) (liver PMPMEase): 66%
Brain Mean (mean percent inhibition relative to the controls) (brain PMPMEase): 100%
